# Reference: ChEMBL document CHEMBL4033781 (J Med Chem, 2018)
# By UniProt entry, the sequences of proteins in these tests, tags left out.
# UniProt Q64541, whole entry: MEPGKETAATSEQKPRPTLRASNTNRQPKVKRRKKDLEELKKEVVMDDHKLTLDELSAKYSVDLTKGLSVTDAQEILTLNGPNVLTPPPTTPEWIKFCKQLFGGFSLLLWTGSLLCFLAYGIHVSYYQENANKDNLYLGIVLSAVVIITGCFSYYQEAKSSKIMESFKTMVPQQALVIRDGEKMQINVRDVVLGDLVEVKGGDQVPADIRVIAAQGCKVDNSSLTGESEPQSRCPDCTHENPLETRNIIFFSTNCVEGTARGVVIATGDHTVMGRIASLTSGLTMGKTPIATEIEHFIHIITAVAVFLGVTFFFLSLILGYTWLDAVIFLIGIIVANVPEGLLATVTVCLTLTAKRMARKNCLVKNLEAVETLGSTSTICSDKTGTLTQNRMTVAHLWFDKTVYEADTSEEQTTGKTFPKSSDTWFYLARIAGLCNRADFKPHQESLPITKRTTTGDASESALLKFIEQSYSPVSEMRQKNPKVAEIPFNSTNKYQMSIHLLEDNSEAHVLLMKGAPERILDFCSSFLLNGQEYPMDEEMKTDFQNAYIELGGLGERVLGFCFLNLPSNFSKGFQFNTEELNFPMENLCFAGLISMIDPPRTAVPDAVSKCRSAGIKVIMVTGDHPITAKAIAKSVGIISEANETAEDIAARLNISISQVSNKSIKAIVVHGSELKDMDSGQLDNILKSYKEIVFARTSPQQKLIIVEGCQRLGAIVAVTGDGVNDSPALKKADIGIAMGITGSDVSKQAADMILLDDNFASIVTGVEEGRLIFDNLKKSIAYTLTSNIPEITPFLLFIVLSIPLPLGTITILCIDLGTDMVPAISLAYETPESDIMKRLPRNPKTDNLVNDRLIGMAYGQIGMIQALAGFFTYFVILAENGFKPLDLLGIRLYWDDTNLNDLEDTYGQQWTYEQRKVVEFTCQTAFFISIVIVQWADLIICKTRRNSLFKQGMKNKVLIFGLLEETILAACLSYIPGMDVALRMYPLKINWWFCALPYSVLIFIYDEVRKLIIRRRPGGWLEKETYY
# Experiments:
# [1] = target: Sodium/potassium-transporting ATPase subunit alpha-4 (Rattus norvegicus) (UniProt Q64541); test: Inhibition of Na+/K+-ATPase alpha4 in Long Evans rat cauda epididymis sperm assessed as increase in intracellular calcium level in sperm at 10^-8 M after 1 hr by calcium green-1-AM staining based confocal microscopic method; type: cell-based; parameters: scale not given: the % may be the effect or the level left
# [2] = target: Sodium/potassium-transporting ATPase subunit alpha-4 (Rattus norvegicus) (UniProt Q64541); test: Inhibition of Na+/K+-ATPase alpha4 in Long Evans rat cauda epididymis sperm assessed as plasma membrane depolarization at 10^-8 M after 1 hr by [DiSC3(5)] staining based fluorescent assay; parameters: scale not given: the % may be the effect or the level left
# [3] = target: Sodium/potassium-transporting ATPase subunit alpha-4 (Rattus norvegicus) (UniProt Q64541); test: Inhibition of Na+/K+-ATPase alpha4 in Long Evans rat cauda epididymis sperm assessed as reduction in total sperm motility at >=10^-8 M after 1 hr by SYTO staining based microscopic method
smiles,measurement,setting,value
C[C@]12C[C@@H](O)[C@H]3[C@@H](CC[C@]4(O)C[C@@H](O)C[C@@H](O)[C@]34CO)[C@@]1(O)CC[C@@H]2c1cn(Cc2ccccc2)nn1,Activity,[1],40%
same,Activity,[2],40%
same,inhibition,[3],60%
